MITF act – activators of MITF-driven TRPM1 promoter reporter, primary screen, cell-based, SK-MEL-5, luciferase, single point; SK-MEL-5 TRPM1-promoter luciferase, 24 h; % of positive control, neutral wells = 0; activation, % at 12.5 µM; 0.75% of 300,000 active; AID 588334, 2011;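 active means mean activation of at least 80% with every replicate also reaching 80%; inconclusive means mean reaches 80% but some replicate falls short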
PGC1a acetyl inh – inhibitors of PGC1a acetylation signal, primary screen, cell-based, U2OS, AlphaScreen, inhibitor mode | inhibition, % at 15.6 µM | 0.17% of 350,000 active | AlphaScreen anti-acetyl-lysine; with virally co-expressed GCN5 acetyltransferase;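 active means every replicate shows inhibition of at least 40%; inconclusive means mean inhibition at least 40% but some replicate below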
MITF TRPM1 inh – inhibitors of MITF-dependent TRPM1 promoter reporter, primary screen, cell-based, SK-MEL-5, single point, luciferase; AID 488899, 2010; inhibition, % at 12.5 µM; SK-MEL-5 TRPM1 promoter luciferase, 24 h; 0.83% of 330,000 active;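 active means mean inhibition across replicates of 60% or more, whatever share of single replicates reaches that level; inconclusive means some that reach 60%, reason not given; inactive means mean inhibition across replicates below 60%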
miR122 inh – miR-122 Renilla sensor signal increase in Huh7, primary screen, miR-122 inhibitor project, cell-based, single point, plate reader; Huh7 miR-122 Renilla luciferase sensor, 48 h; neutral wells = 0, positive control = 100; activation (reporter increase), % at 12.5 µM; 0.3% of 340,000 active; AID 602342, 2012;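 active means mean replicate activation score at least 90 and every replicate individually at or above 90; inconclusive means only one of the two criteria met; inactive means neither criterion met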;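 further: higher luciferase means less miR-122 activity so hits act as miR-122 inhibitors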
Wnt bcat act – Wnt/beta-catenin pathway activators, primary screen, cell-based, plate reader, single point; Wnt/beta-catenin reporter cell assay, activator; activation, % at 9.35 µM; 1.2% of 300,000 active; AID 743398, 2014; in the data active means activation above about 30%, passing the limit was not always enough; inconclusive means no clear call, values can overlap the other calls
UUG fidelity – yeast start codon fidelity modulation; AID 602363; activity score, % at 18.7 µM; S. cerevisiae UUG-firefly luciferase reporter, luminescence/redox ratio; 0.13% of 350,000 active;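 active means replicate mean at a twofold rise or more, about +100% in these data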;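 further: firefly luciferase made from a UUG start codon reports start codon fidelity; reporter light over untreated wells divided by growth signal over untreated wells; some hits fall short of that in this replicate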
Hits are given with their value. Shown are actives, neighbours in structure and some others; about 2.1% of the full set was active somewhere.

For O=C(C[C@H]1C[C@H](C(=O)N2CCCCC2)[C@@]2(CCc3ccccc3)c3[nH]c4ccc(Cl)cc4c3CCN2C1=O)NCCc1ccccn1 the results were MITF act inactive, PGC1a acetyl inh inactive, MITF TRPM1 inh inactive, miR122 inh inactive and UUG fidelity inactive.
For O=C(CSC1=Nc2ccccc2C2CC=NN12)Nc1ccc2c(c1)OCO2 (stereo not given) the results were MITF act inactive, MITF TRPM1 inh inactive, miR122 inh inactive, Wnt bcat act inactive and UUG fidelity inactive.
Screening N#Cc1ccccc1NC(=O)CSC1=Nc2ccccc2C2CC=NN12 (stereo not given) returned MITF act inactive, MITF TRPM1 inh inactive, miR122 inh inactive, Wnt bcat act 47 and UUG fidelity inactive.
`Cc1ccc2nc(SCC(=O)c3ccc(O)cc3O)[nH]c2c1` gave MITF act inactive, PGC1a acetyl inh inactive, MITF TRPM1 inh inactive, miR122 inh inactive, Wnt bcat act 41 and UUG fidelity inactive.
Screening Cc1ccc(S(=O)(=O)Nc2cccc3ncccc23)s1 returned MITF act inactive, PGC1a acetyl inh inactive, MITF TRPM1 inh 100, miR122 inh inactive and UUG fidelity inactive.
COc1ccc(CN(C)C[C@H]2Oc3ccc(N(C)C)cc3CC(=O)N([C@@H](C)CO)C[C@H]2C)cc1 was read as PGC1a acetyl inh inactive, miR122 inh inactive and UUG fidelity inactive.
For COc1ccc(C2NN=C(c3ccc(C)cc3)S2)cc1OC (stereo not given) the results were MITF act inactive, MITF TRPM1 inh inactive and Wnt bcat act 41.
For O=C(NC(=S)NC1CCCCCC1)c1cncc(Br)c1 the results were MITF act 95, MITF TRPM1 inh inactive and Wnt bcat act 37.
For O=C(NC(=S)Nc1ncc(Br)cc1Br)c1cncc(Br)c1 the results were MITF act inactive, PGC1a acetyl inh inactive, MITF TRPM1 inh inactive, miR122 inh inactive, Wnt bcat act inactive and UUG fidelity inactive.
For Cc1cc(C)c2c(N)c(C(=O)Nc3nccs3)sc2n1 the results were PGC1a acetyl inh inactive, MITF TRPM1 inh inactive, miR122 inh inactive, Wnt bcat act 39 and UUG fidelity inactive.
Screening COCc1cc(C)nc2sc(C(=O)Nc3nccs3)c(N)c12 returned PGC1a acetyl inh inactive, miR122 inh inactive, Wnt bcat act inactive and UUG fidelity inactive.
Cc1cc(C)c2c(N)c(C(=O)N/N=C/c3ccccc3)sc2n1 was read as PGC1a acetyl inh inactive, MITF TRPM1 inh inactive, miR122 inh inactive and Wnt bcat act 47.
For Cc1ccc(NC(=O)c2sc3nc(C)cc(C)c3c2N)cc1 the results were MITF act 83, MITF TRPM1 inh inactive, Wnt bcat act 36 and UUG fidelity inactive.
CCCc1cn(CC[C@H]2CC[C@H](NC(=O)C3CCOCC3)[C@@H](CO)O2)nn1 was read as PGC1a acetyl inh inactive and UUG fidelity inactive.
Screening CNC[C@@H]1Oc2c(NC(=O)Nc3ccc(OC)cc3)cccc2C(=O)N([C@@H](C)CO)C[C@H]1C returned PGC1a acetyl inh inactive and miR122 inh inactive.
For CNC[C@@H]1OCCCC[C@@H](C)Oc2ccc(NS(=O)(=O)c3ccccc3)cc2C(=O)N([C@@H](C)CO)C[C@H]1C the results were PGC1a acetyl inh inactive, miR122 inh inactive and UUG fidelity inactive.
For CCc1nnc2c3cnn(-c4ccccc4)c3ncn12 the results were MITF act 99, PGC1a acetyl inh inactive, MITF TRPM1 inh inactive, miR122 inh inactive, Wnt bcat act inconclusive and UUG fidelity inactive.
c1ccc(-n2ncc3c2ncn2cnnc32)cc1 was read as MITF act inactive, PGC1a acetyl inh inactive, MITF TRPM1 inh inactive, miR122 inh inactive and UUG fidelity inactive.
`COc1cc2c(cc1NC(=O)CSc1ccc(Cl)cc1)oc1ccccc12` gave MITF act inactive, PGC1a acetyl inh inactive, MITF TRPM1 inh inactive, miR122 inh inactive and UUG fidelity inactive.
COc1cc2c(cc1NC(=O)CSc1ccccn1)oc1ccccc12 was read as MITF act 95, MITF TRPM1 inh inactive, miR122 inh inactive and UUG fidelity inactive.
For COc1ccc(CNC(=O)C[C@H]2C=C[C@H](NC(=O)c3ccc4c(c3)OCO4)[C@@H](CO)O2)cc1 the results were PGC1a acetyl inh inactive, miR122 inh inactive and UUG fidelity inactive.
For CN=c1scc(-c2cccs2)n1/N=C/c1ccccc1O the results were MITF act inactive, MITF TRPM1 inh 87 and Wnt bcat act inactive.
For CN=c1scc(-c2cccs2)n1/N=C/c1ccc(O)c(O)c1O the results were MITF act inactive, MITF TRPM1 inh inactive and Wnt bcat act inactive.
CC(C)CC1NC(=O)N(CC(=O)c2ccc3c(c2)OCCO3)C1=O (stereo not given) was read as PGC1a acetyl inh inactive, MITF TRPM1 inh inactive, miR122 inh inactive, Wnt bcat act 33 and UUG fidelity inactive.
CCCC1Oc2ccccc2C(=O)N(CC(=O)c2ccc3c(c2)OCCO3)C1=O (stereo not given) was read as MITF act inactive, PGC1a acetyl inh inactive, MITF TRPM1 inh inactive, miR122 inh inactive, Wnt bcat act inactive and UUG fidelity inactive.
C[C@H](CO)N1C[C@H](C)[C@H](CN(C)Cc2ccccc2)Oc2c(NS(=O)(=O)c3ccccc3)cccc2C1=O was read as PGC1a acetyl inh inactive, miR122 inh inactive and UUG fidelity inactive.
For C[C@H](CO)N1C[C@H](C)[C@H](CN(C)Cc2ccc3c(c2)OCO3)Oc2ccc(NC(=O)CCC(F)(F)F)cc2C1=O the results were PGC1a acetyl inh inactive, miR122 inh inactive and UUG fidelity inactive.
O=C(O)CCC(=O)Nc1ccccc1C(=O)Nc1ccccc1 was read as MITF act inactive, PGC1a acetyl inh inactive, MITF TRPM1 inh inactive, miR122 inh 115 and UUG fidelity inactive.
COCC(=O)Nc1ccccc1C(=O)Nc1ccc(OC)cc1 was read as MITF act inactive, PGC1a acetyl inh inactive, MITF TRPM1 inh inactive, miR122 inh inactive, Wnt bcat act 36 and UUG fidelity inactive.
For Cc1ccc(NC(=O)c2cc3ccccc3cc2O)cc1 the results were MITF act inactive, PGC1a acetyl inh inactive, MITF TRPM1 inh inactive, miR122 inh inactive, Wnt bcat act 46 and UUG fidelity inactive.
Screening COc1ccc(NC(=O)c2cc3ccccc3cc2O)cc1 returned MITF act inactive, PGC1a acetyl inh inactive, MITF TRPM1 inh inactive, Wnt bcat act 35 and UUG fidelity inactive.
For O=c1oc(CCCO)cc2ccc(/C=C/c3cccc([N+](=O)[O-])c3)cc12 the results were MITF act 92, PGC1a acetyl inh inactive, MITF TRPM1 inh inactive, miR122 inh inactive, Wnt bcat act inconclusive and UUG fidelity inactive.
